Biological target: T1, pure CA11 enzyme from human erythrocyte (Homo sapiens, UniProt P00918)
T1 construct: pure CA11 enzyme from human erythrocyte; from tissue; host or cells: human erythrocyte
Test: Carbonic anhydrase activity assay, micromethod of Maren
Type: biochemical
Conditions: concentration that lowers the enzyme activity to half; 0°-4° C.; phenol red endpoint, pH 9.9 to 6.8
Procedure: Carbonic anhydrase activity was assayed according to the micromethod of Maren (J. Pharmacol. Exptl. Therap., 130, 26-29, 1960). All solutions and reagents were maintained at 0°-4° C. The final assay mixture contained 16 mM phenol red, added enzyme and 62.5 mM sodium carbonate/bicarbonate. Its volume was kept constant at 0.8 mL. The time required for the added enzyme to lower the pH of CO2 -saturated carbonate/bicarbonate buffer from pH 9.9 to 6.8 was measured using the color change of phenol red as endpoint. T1 is the time recorded for the reaction containing no enzyme. T2 is the time recorded for the reaction containing pure CA11 enzyme from human erythrocyte, or an unknown amount in a sample. Enzyme activities (unit) were calculated using the formula:
Unit/ug=(T1 -T2)/(T2 *ug protein used in assay)
IC50 of a carbonic anhydrase inhibitor is the concentration that lowers the enzyme activity to half.

Row | Compound | IC50 [nM]
1 | 5-(3-butoxycarbonylbenzoyl)-3-thiophene sulfonamide | 25
2 | 5-n-Heptyl-3-thiophene sulfonamide [5-heptyl-3-thiophene sulfonamide] | 21
3 | CN(C)CCOC(=O)c1ccc(C(=O)c2cc(S(N)(=O)=O)cs2)cc1 [5-(4-(2-N,N-dimethylamino-1-ethoxy)carbonylbenzoyl)-3-thiophene sulfonamide] | 25
4 | CC(=O)OCc1ccc(C(O)c2cc(S(N)(=O)=O)cs2)cc1 (stereo not shown) [5-(4-acetoxymethylbenzhydrol)-3-thiophene sulfonamide] | 21
